{"sequences": {"note": "Amino acid sequences for entries named in this document (tags omitted).", "UniProt P30536, whole entry": "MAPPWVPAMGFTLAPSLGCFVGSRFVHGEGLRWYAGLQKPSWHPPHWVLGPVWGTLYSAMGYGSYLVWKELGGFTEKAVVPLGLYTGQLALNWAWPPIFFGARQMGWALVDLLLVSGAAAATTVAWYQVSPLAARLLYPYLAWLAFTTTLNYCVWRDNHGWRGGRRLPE"}, "source": "patent US20020039746A1", "about": "“Methods for identifying peripheral benzodiazepine receptor binding agents” (priority 2000, published 2002)", "key": {"[1]": {"biological_target": "T1, PBzR (Homo sapiens, UniProt P30536)", "T1 construct": "expressed in transfected cells; host or cells: S11, clonal SH-SY5Y-derived stably transfected PBzR-overexpressing line", "assay": "displacement of [3H]PK-11195 binding to the S11 PBzR overexpressing clone", "protocol": "Additional experiments were performed to further characterize the binding of ligand to PBzR.\nThe S11 cell line was used as a source of PBzR."}, "[2]": {"biological_target": "T2, peripheral benzodiazepine receptor (PBR, PBzR) (Homo sapiens, UniProt P30536)", "T2 construct": "expressed in transfected cells; membranes", "assay": "[3H]PK-11195 saturation binding to cell membranes"}}, "note": "Values joined by “and” are separate entries in the source; they are usually repeats but may differ in a detail not shown here. Equal entries are not always repeated.", "data": [{"smiles": "CCC(C)N(C)C(=O)c1cc2ccccc2c(-c2ccccc2Cl)n1", "note": "(stereo not drawn) [PK-11195, 1-(2-chlorophenyl)-N-methyl-N-(1-methylpropyl)-3-isoquinolinecarboxamide]", "values": [{"measurement": "IC50", "setting": "[1]", "value": 5.36, "unit": "nM"}, {"measurement": "Kd (nM)", "setting": "[2]; Jurkat Vector", "value": "Not detected"}, {"measurement": "Kd", "setting": "[2]; Kd (nM), S11", "value": 5.3, "unit": "nM"}, {"measurement": "Kd", "setting": "[2]; Kd, Jurkat cells stably expressing PBR (Jurkat PBzR)", "value": "~3 nM and 4.6 nM"}, {"measurement": "Kd", "setting": "[2]; Kd, native SY5Y cells, tritiated PK-11195 saturation binding", "value": 6.9, "unit": "nM"}, {"measurement": "Kd", "setting": "[2]; Kd, stably PBR-transfected SY5Y cells", "value": 3.8, "unit": "nM"}]}]}
